## Ab-14 heavy chain CDR variants: yeast mating affinities

Source: Engelhart et al. 2022 (doi:10.1038/s41597-022-01779-4), MIT Lincoln Laboratory and A-Alpha Bio; data file from the FLAb repository.

Target: peptide PDVDLGDISGINAS, taken from heptad repeat 2 (HR2) of SARS-CoV-2 spike.

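The library (AAYL49) carries one to three amino acid substitutions per variant, with no insertions or deletions. The assay is AlphaSeq: two haploid yeast populations carry antibody and antigen on their surface. Mating (16 h, 30 °C) was followed by selection of diploids and sequencing of their barcodes. Scores were corrected for input abundance and mapped to Kd with protein pairs of known affinity run in the same pool. There are three technical replicates.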

Each scFv is VH, a (GGGGS)3 linker, VL, as in the parent Ab-14, and differs from it in the CDRs of the heavy chain only.
VH: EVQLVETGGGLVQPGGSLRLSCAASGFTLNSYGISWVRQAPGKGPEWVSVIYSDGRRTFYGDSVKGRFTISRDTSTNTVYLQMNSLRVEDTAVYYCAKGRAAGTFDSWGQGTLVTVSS
VL: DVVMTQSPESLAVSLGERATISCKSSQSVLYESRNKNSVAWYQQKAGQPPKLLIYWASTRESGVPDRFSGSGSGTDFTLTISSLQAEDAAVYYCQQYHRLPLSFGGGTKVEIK

Each variant's VH is given in full.
The read-out is the apparent dissociation constant on a log10 scale (nM): the lower, the stronger.
Replicates are averaged; those with no signal do not enter the mean.
"nd" means that the variant was in the library but no mating with the target was seen in any replicate; the authors take this as a sign of poor binding, and no number exists.
Empty control strains, which show no peptide, gave a signal in 15% of pairings with library AAYL49; the median was 4.06 and 95% of these signals were weaker than 2.83. No background was subtracted.

VH | mean log10 Kd (nM) | detected
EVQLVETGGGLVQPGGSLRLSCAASTFTLNSYGISWVRQAPGKGPEWVSVIYSDGRRTFYGVSVKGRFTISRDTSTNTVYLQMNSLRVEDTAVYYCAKGRAAGNFDSWGQGTLVTVSS | nd | 0 of 3
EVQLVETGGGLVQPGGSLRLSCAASGFTLNSYGISWVRQAPGKGPEWVSVIYSDGRRTFYGISVRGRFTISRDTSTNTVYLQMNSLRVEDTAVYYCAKGRAAGTCDSWGQGTLVTVSS | 3.38 | 1 of 3
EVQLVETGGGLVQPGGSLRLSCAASGFTLNSYGISWVRQAPGKGPEWVSVIYSDGRRTFYGDTVKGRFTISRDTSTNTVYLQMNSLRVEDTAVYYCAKTRLAGTFDSWGQGTLVTVSS | 5.28 | 2 of 3
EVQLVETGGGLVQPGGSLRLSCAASGFTLNSYGISWVRQAPGKGPEWVSVIYSDGRRTFYGDAVKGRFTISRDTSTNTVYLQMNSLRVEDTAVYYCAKGRAAGIFDSWGQGTLVTVSS | 2.57 | 1 of 3
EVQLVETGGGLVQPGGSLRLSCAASGFTLNSYGISWVRQAPGKGPEWVSTIYSDYRRTFYNDSVKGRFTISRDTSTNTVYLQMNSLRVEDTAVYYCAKGRAAGTFDSWGQGTLVTVSS | nd | 0 of 3
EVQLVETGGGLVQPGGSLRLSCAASGFTKNFYGISWVRQAPGKGPEWVSVIYSDGRRTFYGDSVKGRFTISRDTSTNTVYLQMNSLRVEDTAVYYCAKGRAAGTFDSWGQGTLVTVSS | nd | 0 of 3
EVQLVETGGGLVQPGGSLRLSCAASGITMNSYGGSWVRQAPGKGPEWVSVIYSDGRRTFYGDSVKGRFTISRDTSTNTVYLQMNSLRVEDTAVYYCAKGRAAGTFDSWGQGTLVTVSS | 3.91 | 1 of 3
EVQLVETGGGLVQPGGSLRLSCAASGITLNSYGISWVRQAPGKGPEWVSVIYSDGRRTFYGDSVKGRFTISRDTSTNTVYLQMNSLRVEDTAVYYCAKGRACGTFNSWGQGTLVTVSS | nd | 0 of 3
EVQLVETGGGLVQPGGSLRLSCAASGFTHNSYDISWVRQAPGKGPEWVSVIYSDGRYTFYGDSVKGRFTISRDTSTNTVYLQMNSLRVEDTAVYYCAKGRAAGTFDSWGQGTLVTVSS | nd | 0 of 3
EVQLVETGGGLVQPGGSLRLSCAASGFTLNSYGISWVRQAPGKGPEWVSVIVSDGRRTFYGDSVKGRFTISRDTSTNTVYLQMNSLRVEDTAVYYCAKGRAAVMFDSWGQGTLVTVSS | nd | 0 of 3
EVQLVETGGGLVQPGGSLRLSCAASGFTLNSPGISWVRQAPGKGPEWVSVIYSHGRRTFAGDSVKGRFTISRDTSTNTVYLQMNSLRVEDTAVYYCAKGRAAGTFDSWGQGTLVTVSS | nd | 0 of 3
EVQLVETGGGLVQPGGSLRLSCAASAFTLNSYGISWVRQAPGKGPEWVSVIYSDGRRTFYGDSSKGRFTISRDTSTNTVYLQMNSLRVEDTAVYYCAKGRAAGTFQSWGQGTLVTVSS | nd | 0 of 3
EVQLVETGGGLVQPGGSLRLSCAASGFTLNSYGISWVRQAPGKGPEWVSVISSDGRRTFYGDHVKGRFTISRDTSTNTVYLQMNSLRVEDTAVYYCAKGRAAGTDDSWGQGTLVTVSS | 4.14 | 2 of 3
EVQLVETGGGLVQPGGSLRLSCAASGFTLNSYGIQWVRQAPGKGPEWVSMIYSDGRITFYGDSVKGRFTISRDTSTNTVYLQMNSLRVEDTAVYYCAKGRAAGTFDSWGQGTLVTVSS | nd | 0 of 3
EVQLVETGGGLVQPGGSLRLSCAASVFTLNSYGISWVRQAPGKGPEWVSVIWSDGRRTFYGDSVKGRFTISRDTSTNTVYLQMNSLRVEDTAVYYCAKGRAAGTFDQWGQGTLVTVSS | 4.55 | 1 of 3
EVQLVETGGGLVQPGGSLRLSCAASGFTLNSYGLSWVRQAPGKGPEWVSVIYGDGRRTFYGDSVKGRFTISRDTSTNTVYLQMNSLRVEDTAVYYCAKGKAAGTFDSWGQGTLVTVSS | 3.16 | 1 of 3
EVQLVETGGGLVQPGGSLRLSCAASGFTDNSYGISWVRQAPGKGPEWVSVIYSDGIRTFYTDSVKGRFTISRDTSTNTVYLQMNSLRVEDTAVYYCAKGRAAGTFDSWGQGTLVTVSS | 4.18 | 1 of 3
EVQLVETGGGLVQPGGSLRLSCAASGFTLNSYGSSWVRQAPGKGPEWVSVIYSTGRRTFYGDSLKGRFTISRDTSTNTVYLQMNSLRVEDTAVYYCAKGRAAGTFDSWGQGTLVTVSS | nd | 0 of 3
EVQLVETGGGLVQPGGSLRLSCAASGFTLNSYGISWVRQAPGKGPEWVSVIYSDGRRMFYGDSVEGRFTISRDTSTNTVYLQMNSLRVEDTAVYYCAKGRAAGTFDYWGQGTLVTVSS | 2.25 | 3 of 3
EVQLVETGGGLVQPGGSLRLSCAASGFTLNSYGISWVRQAPGKGPEWVSVIYDDGRGTFYGDSVKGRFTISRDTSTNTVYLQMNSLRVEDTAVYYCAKGRAEGTFDSWGQGTLVTVSS | nd | 0 of 3
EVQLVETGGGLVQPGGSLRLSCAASGFTLNAYGISWVRQAPGKGPEWVSVIYSHGDRTFYGDSVKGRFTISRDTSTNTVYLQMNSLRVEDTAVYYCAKGRAAGTFDSWGQGTLVTVSS | 4.68 | 2 of 3
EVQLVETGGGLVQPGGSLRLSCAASGHTLQSYGISWVRQAPGKGPEWVSVIYSDGRRTFYGDSVKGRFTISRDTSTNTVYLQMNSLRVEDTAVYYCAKGRKAGTFDSWGQGTLVTVSS | 5.16 | 1 of 3
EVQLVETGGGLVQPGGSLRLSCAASGFTLNSYGISWVRQAPGKGPEWVSVIYSDGRRTFYGDSLKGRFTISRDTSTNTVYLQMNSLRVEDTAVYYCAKGCAAGTFDSWGQGTLVTVSS | nd | 0 of 3
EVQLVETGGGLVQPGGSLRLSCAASGFTLNDYGISWVRQAPGKGPEWVSVIYSDGRPTFYGDSVKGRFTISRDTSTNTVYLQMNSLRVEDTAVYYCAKGRAAGTFDSWGQGTLVTVSS | nd | 0 of 3
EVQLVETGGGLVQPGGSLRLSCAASGFTLNSYWIVWVRQAPGKGPEWVSVIYSDGRRTFYGCSVKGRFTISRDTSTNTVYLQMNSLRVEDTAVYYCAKGRAAGTFDSWGQGTLVTVSS | nd | 0 of 3
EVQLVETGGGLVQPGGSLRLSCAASGFYLNSYGRSWVRQAPGKGPEWVSVIYSDGRRTFYGDSVKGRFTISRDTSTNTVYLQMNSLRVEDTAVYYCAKGRAANTFDSWGQGTLVTVSS | nd | 0 of 3

The first 4 entries again:

{"VH": "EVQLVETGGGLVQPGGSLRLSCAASTFTLNSYGISWVRQAPGKGPEWVSVIYSDGRRTFYGVSVKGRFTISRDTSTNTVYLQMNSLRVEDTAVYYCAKGRAAGNFDSWGQGTLVTVSS", "mean log10 Kd (nM)": "nd", "detected": "0 of 3"}
{"VH": "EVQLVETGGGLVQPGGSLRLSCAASGFTLNSYGISWVRQAPGKGPEWVSVIYSDGRRTFYGISVRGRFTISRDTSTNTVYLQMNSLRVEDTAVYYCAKGRAAGTCDSWGQGTLVTVSS", "mean log10 Kd (nM)": "3.38", "detected": "1 of 3"}
{"VH": "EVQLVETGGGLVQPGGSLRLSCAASGFTLNSYGISWVRQAPGKGPEWVSVIYSDGRRTFYGDTVKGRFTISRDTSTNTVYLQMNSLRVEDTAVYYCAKTRLAGTFDSWGQGTLVTVSS", "mean log10 Kd (nM)": "5.28", "detected": "2 of 3"}
{"VH": "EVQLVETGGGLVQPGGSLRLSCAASGFTLNSYGISWVRQAPGKGPEWVSVIYSDGRRTFYGDAVKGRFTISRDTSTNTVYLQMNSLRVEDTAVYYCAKGRAAGIFDSWGQGTLVTVSS", "mean log10 Kd (nM)": "2.57", "detected": "1 of 3"}